Literature values as cited in patent publication US5721213A, “Peptides, active as inhibitors of platelet aggregation” (Nippon Steel Corporation, priority 1993, dated 1998).

Conditions: added to platelet fractions, plasma enzymes; cited from earlier work

Substance: arginine-glycine-aspartic acid-phenylalanine [RGDF]
- stability in platelet fractions: broken down by the action of enzymes present in plasma
